Assay results as given in US20070054841A1, “Method of treatment of systemic injury secondary to burns” (The University of Queensland, priority 2003, published 2007).

Tests used:
[1] = tested on: rats with full thickness skin burn; assay: Rat thermal skin burn (30%): bronchoalveolar lavage cell number and lung myeloperoxidase; type: in vivo, Female Wistar rats; conditions: 10 mg/kg SC 30 minutes before burn; 4 hours after burning; versus burn-only rats
Protocol: A separate series of experiments was performed in the same way to determine myeloperoxidase (MPO) levels in the lung. In this experiment the groups were as follows: Immediately after the 4 hr monitoring period following the burn the lungs were flushed with 10 ml of saline via the pulmonary artery. Bronchoalveolar lavage (BAL) fluid was collected by an irrigation of 1 ml of saline at 37° C. into the lung once through the trachea and the total number of cells present in the lavage fluid was determined. Approximately 50% of the left lung was weighed, then homogenized in 1 ml solution of 0.05% sodium azide in 0.1M PBS (pH 6.4), and then sonicated and centrifuged. The MPO levels in the supernatants of lungs were determined using a tissue MPO assay, and the results were calculated as absorbance/tissue weight (g). Samples of affected skin, lung, liver and kidney were collected for histopathology.

C5a receptor = target: T1, C5a receptor (Homo sapiens, UniProt P21730); conditions: chemotaxis and polarisation of neutrophils; Finch et al 1999; cited from earlier work
T1 construct: as monitored in sensitive assays for chemotaxis and polarisation of neutrophils; host or cells: neutrophils
T1 sequence (P21730 1-350): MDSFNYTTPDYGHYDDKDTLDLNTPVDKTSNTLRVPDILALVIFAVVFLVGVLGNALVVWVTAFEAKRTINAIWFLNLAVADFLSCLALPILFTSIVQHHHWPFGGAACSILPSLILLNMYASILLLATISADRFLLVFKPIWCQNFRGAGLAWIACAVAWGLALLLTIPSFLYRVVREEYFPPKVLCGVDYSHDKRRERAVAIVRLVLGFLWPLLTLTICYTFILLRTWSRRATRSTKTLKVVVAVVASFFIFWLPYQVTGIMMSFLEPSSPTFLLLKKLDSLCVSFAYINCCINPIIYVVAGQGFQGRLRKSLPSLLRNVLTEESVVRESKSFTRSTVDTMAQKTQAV

CC(=O)N[C@@H](Cc1ccccc1)C(=O)N[C@H]1CCCNC(=O)[C@H](CCCNC(=N)N)NC(=O)[C@H](Cc2c[nH]c3ccccc23)NC(=O)[C@@H](CC2CCCCC2)NC(=O)[C@@H]2CCCN2C1=O [PMX53, AcPhe[Orn-Pro-D-Cyclohexylalanine-Trp-Arg]]
increase in lung myeloperoxidase (MPO) levels [1]: significantly inhibited | agonist activity (C5a receptor): devoid of detectable agonist activity
